Assay results as given in PMC12603982 (Angewandte Chemie (International Ed. in English), 2025).

Biological target: T1, hOTR (Homo sapiens, UniProt P30559)
T1 construct: expressed in transfected cells
T1 sequence (P30559 1-389): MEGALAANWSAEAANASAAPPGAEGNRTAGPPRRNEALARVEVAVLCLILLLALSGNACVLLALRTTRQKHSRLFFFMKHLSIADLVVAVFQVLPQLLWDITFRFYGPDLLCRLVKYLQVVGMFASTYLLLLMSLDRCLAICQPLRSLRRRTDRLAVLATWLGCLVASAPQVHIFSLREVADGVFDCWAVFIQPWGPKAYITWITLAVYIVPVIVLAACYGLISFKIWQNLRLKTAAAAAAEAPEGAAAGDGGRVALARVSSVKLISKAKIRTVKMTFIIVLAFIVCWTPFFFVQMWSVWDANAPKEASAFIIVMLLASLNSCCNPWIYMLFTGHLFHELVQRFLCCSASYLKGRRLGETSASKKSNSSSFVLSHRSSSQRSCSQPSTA
Assay: Radioligand displacement and saturation binding, membranes of HEK293 cells stably expressing hOTR, [3H]-OT
Conditions: saturation binding, stable cell line

Kd: 0.65 nM
Substance: oxytocin [[3H]-OT, oxytocin [tyrosyl-3,5-3H], reference compound]
